The chains behind the UniProt entries cited, without tags or fusion partners. Where a name states a change or a piece, a line headed by the entry shows the natural chain unless it says otherwise. A line that says so, or that is headed by a name, gives the form on record, which may keep a tag or linker. Residues count along the entry.
UniProt P22303, 32-574 with tags or gaps limits assumed: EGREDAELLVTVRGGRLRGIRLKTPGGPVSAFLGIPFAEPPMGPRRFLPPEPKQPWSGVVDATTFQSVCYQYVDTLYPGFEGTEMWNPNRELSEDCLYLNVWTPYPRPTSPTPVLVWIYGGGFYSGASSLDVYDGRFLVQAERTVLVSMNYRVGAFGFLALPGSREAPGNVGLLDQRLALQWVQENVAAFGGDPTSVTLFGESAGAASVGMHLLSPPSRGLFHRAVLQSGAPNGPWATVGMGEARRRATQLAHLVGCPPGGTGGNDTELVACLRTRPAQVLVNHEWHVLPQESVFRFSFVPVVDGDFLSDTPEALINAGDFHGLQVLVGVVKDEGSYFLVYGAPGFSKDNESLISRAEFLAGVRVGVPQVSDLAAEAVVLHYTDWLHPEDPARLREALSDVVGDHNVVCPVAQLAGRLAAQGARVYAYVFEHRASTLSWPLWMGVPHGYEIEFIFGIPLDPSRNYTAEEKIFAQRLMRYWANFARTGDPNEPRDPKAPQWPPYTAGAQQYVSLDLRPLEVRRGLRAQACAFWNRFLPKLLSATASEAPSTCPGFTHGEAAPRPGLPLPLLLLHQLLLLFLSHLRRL
UniProt O70528: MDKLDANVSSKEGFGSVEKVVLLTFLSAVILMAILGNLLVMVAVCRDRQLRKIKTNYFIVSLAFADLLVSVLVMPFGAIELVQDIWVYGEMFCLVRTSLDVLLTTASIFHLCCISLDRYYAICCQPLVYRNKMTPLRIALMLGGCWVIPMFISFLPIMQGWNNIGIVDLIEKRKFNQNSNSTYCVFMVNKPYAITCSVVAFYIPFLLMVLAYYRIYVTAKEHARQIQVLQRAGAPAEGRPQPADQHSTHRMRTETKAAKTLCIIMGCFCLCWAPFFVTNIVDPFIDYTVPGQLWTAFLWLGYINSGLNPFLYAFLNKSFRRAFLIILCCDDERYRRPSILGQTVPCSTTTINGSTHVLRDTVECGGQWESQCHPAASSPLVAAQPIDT

According to US9663465B2, “Acetylcholinesterase inhibitors and promnesiant serotonin 5-HT4 receptor agonists, their methods of preparation and the pharmaceutical compositions containing the same” (UNIVERSITE DE CAEN, priority 2013, dated 2017):

Experiments:
[1] = target: human acetylcholinesterase (Homo sapiens (Human), UniProt P22303); type: biochemical; conditions: acetylcholinesterase from human erythrocytes
5-HT4 receptors = 5-HT4 receptors (Cavia porcellus (Guinea pig), UniProt O70528); test: Affinity as regards 5-HT4 receptors: competition against [3H]-GR113808 on striatal membranes; conditions: read-out: Ki in nM; 0.1 nM [3H]-GR113808, guinea pig striatal membranes

COc1cc(N)c(Br)cc1C(=O)CCC1CCN(CC2CCCCC2)CC1 [Compound 14, 1-(4-amino-5-bromo-2-methoxyphenyl)-3-[1-(cyclohexylmethyl)-4-piperidyl]propan-1-one]
IC50 [1]: 99 nM

COc1cc(N)c(Cl)cc1C(=O)CCC1CCN(CC2CC2)CC1 [Compound 6, 1-(4-amino-5-chloro-2-methoxyphenyl)-3-[1-(cyclopropylmethyl)-4-piperidyl]propan-1-one]
Ki (5-HT4 receptors): 14.8 nM
IC50 [1]: 937 nM

COc1cc(N)c(Cl)cc1C(=O)OCC1CCN(CC2CCCCC2)CC1 [Compound 20, [1-(cyclohexylmethyl)-4-piperidyl]methyl 4-amino-5-chloro-2-methoxybenzoate]
IC50 [1]: 2720 nM

COc1cc(N)c(Cl)cc1C(=O)C(C)CC1CCN(CC2CCCCC2)CC1 (stereo not shown) [Compound 10, 1-(4-amino-5-chloro-2-methoxyphenyl)-3-[1-(cyclohexylmethyl)-4-piperidyl]-2 methylpropan-1-one]
IC50 [1]: 201 nM

COc1cc(N)c(Cl)cc1C(=O)CCC1CCN(CC2CCCCC2)CC1 [Compound 9, 1-(4-amino-5-chloro-2-methoxyphenyl)-3-[1-(cyclohexylmethyl)-4-piperidyl]propan-1-one]
IC50 [1]: 63 nM

COc1cc(N)c(Cl)cc1C(=O)CCC1CCN(CCC2CCCCC2)CC1 [Compound 16, 1-(4-amino-5-chloro-2-methoxyphenyl)-3-[1-(cyclohexylethyl)-4-piperidyl]propan-1-one]
IC50 [1]: 222 nM

COc1cc(N)c(I)cc1C(=O)CCC1CCN(CC2CCCCC2)CC1 [Compound 15, 1-(4-amino-5-iodo-2-methoxyphenyl)-3-[1-(cyclohexylmethyl)-4-piperidyl]propan-1-one]
Ki (5-HT4 receptors): 18.1 nM

COc1cc(N)c(Cl)cc1C(=O)CCC1CCN(CC2CCC2)CC1 [Compound 7, 1-(4-amino-5-chloro-2-methoxyphenyl)-3-[1-(cyclobutylmethyl)-4-piperidyl]propan-1-one]
Ki (5-HT4 receptors): 8.8 nM

COc1cc(N)c(Cl)cc1C(=O)CCC1CCN(CC2CCNCC2)CC1 [Compound 13, 1-(4-amino-5-chloro-2-methoxyphenyl)-3-[1-[(piperidin-4-yl)methyl]-4-piperidyl] propan-1-one dichlorohydrate]
Ki (5-HT4 receptors): 2.5 nM
